From PMC6249299, “A split luciferase-based probe for quantitative proximal determination of Gαq signalling in live cells” (Scientific Reports, 2018)

Chains of the proteins cited; added tags and fusions are not shown.
UniProt P30989, whole entry: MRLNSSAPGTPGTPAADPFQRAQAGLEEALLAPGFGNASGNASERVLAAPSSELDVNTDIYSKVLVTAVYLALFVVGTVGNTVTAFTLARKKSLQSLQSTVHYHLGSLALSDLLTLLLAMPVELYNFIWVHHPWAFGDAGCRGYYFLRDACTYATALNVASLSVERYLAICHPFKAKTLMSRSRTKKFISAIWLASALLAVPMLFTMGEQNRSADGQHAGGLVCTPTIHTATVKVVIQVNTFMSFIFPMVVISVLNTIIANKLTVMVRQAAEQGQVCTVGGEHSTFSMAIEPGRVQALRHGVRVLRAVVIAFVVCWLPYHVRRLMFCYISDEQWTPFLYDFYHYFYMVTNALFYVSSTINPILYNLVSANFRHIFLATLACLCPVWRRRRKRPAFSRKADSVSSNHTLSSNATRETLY

Target: human neurotensin receptor 1 (hNTS1R) (human) (UniProt P30989)

pEC50 of activation of the Gαq/PLC-β3 split-luciferase sensor in live HEK293T cells expressing hNTS1R: 8.79 pEC50
Substance: Neurotensin (8–13) (peptide)
